Where “and” joins values, the source holds several entries; their conditions need not be identical. Equal entries are not always repeated. The entries are a selection whose mix differs from that of the whole data set. Inconclusive results are not listed. Calls of active or inactive are those of the source. Calls follow the shape of the dose curve; as a rule, active = well fitted inhibition curve with a large enough effect; inconclusive = small, poorly fitted or top-dose-only effect, or effect the other way; inactive = flat fitted curve, though single readings scatter.

Amino acid sequences for entries named in this document (tags omitted). Residues count along the entry.
UniProt P25779, 123-467 limits assumed: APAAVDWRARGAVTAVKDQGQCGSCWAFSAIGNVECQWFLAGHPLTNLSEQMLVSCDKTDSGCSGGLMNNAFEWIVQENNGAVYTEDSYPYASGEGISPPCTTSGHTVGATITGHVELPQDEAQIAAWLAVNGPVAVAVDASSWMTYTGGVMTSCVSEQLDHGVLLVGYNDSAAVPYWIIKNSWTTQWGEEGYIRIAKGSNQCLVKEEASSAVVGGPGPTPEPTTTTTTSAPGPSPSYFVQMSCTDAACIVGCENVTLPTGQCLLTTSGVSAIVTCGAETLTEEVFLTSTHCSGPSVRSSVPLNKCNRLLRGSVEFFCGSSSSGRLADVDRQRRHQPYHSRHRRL

This experiment concerns the target Cruzipain (Trypanosoma cruzi) (UniProt P25779). The experiment can be described thus: qHTS Assay for Promiscuous and Specific Inhibitors of Cruzain (without detergent).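 Also: plate controls were enzyme without inhibitor for no effect and buffer without enzyme for full effect; nearly all actives have a fitted effect of over 40% in size.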 The conditions noted are these: purified cruzain, Z-FR-AMC fluorescence, no detergent. (qHTS replaces the single test concentration by a dilution series.)
Regarding `CN(CCCl)CCCl`, the max response, negative = inhibition is inactive: -0.438% and inactive: 6.04%. As to `O=[N+]([O-])C(Cl)(Cl)Cl`, the max response, negative = inhibition is inactive: -2.44%.

The values above are taken from PubChem BioAssay AID1476 (National Center for Advancing Translational Sciences (NCATS), 2009).
